Source: US20100099731A1, “Use of Endothelial Interrupters in the Treatment of Neurodegenerative Diseases” (Texas Tech University System, priority 2008, published 2010)

Test system: Rat neuronal cortical cell cultures
Details: thrombin 100 nM or SNP 10 μM, 24 h

Q: Which “neuronal apoptosis (nucleosome ELISA)” value does the source give for sodium nitroprusside here?
A: evoke neuronal cell death
